Earlier results as cited in patent US11531207B2, “Devices, apparatus and method for providing photostimulation and imaging of structures” (The Trustees of Columbia University in the City of New York, priority 2008, dated 2022).

Details: local application ("puffing"); cited from earlier work

Substance: MNI-caged L-glutamate [MNI-glutamate]
- concentration limited by the solubility of the compound in the water: 10 to 50 mM
